Assay results: patent publication US9290457B2, “Substituted dihydropyrimidinones and their use as inhibitors of neutrophil elastase activity” (Boehringer Ingelheim International GmbH, priority 2014, dated 2016)

By UniProt entry, the sequences of proteins in these tests, tags left out. Residues count along the entry.
UniProt P08246, 30-247 limits assumed: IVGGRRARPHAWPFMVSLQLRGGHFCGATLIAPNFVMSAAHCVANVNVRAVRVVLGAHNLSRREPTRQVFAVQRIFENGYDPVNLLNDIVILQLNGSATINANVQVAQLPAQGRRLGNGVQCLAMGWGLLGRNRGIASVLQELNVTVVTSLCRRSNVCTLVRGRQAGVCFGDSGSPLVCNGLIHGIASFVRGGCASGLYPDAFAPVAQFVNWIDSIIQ

The compounds below were run against neutrophil elastase (Homo sapiens (Human), UniProt P08246) (assay: Human Neutrophil Elastase Assay). Conditions: substrate MeOSuc-Ala-Ala-Pro-Val-AMC.

| IC50 | SMILES |
| --- | --- |
| < 1 nM | CC(=O)C1=C(C)N(c2cccc(C(F)(F)F)c2)C(=O)N(C)C1c1ccc(C#N)cc1C(=O)N1CC[C@H](N(C)C(C)=O)C1 (some centres unmarked) |
| < 1 nM | CCOC(=O)C1=C(C)N(c2cccc(C(F)(F)F)c2)C(=O)N(C)C1c1ccc(C#N)cc1C(=O)N(C)CCNC (centres unmarked) |
| < 1 nM | CC(=O)C1=C(C)N(c2cccc(C(F)(F)F)c2)C(=O)N(C)C1c1ccc(C#N)cc1C(=O)N1CC[C@@H](N(C)C(C)=O)C1 (some centres unmarked) |
| 1.1 nM | CC(=O)C1=C(C)N(c2cccc(C(F)(F)F)c2)C(=O)N(C)C1c1ccc(C#N)cc1C(=O)N1CCC(N2CCOCC2)C1 (centres unmarked) |
| < 1 nM | CC(=O)C1=C(C)N(c2cccc(C(F)(F)F)c2)C(=O)N(C)C1c1ccc(C#N)cc1C(=O)NCCN1CCOCC1 (centres unmarked) |
| 1.6 nM | CCOC(=O)C1=C(C)N(c2cccc(C(F)(F)F)c2)C(=O)N(C)C1c1ccc(C#N)cc1C(=O)NC(C)(C)C#N (centres unmarked) |

| SMILES | IC50 |
| --- | --- |
| CC(=O)N[C@H]1CCN(C(=O)c2cc(C#N)ccc2C2C(C(C)=O)=C(C)N(c3cccc(C(F)(F)F)c3)C(=O)N2C)C1 (some centres unmarked) | < 1 nM |
| CC(=O)C1=C(C)N(c2cccc(C(F)(F)F)c2)C(=O)N(C)C1c1ccc(C#N)cc1C(=O)N1CCC(N2CCOCC2)CC1 (centres unmarked) | 1.9 nM |
| CC(=O)C1=C(C)N(c2cccc(C(F)(F)F)c2)C(=O)N(C)C1c1ccc(C#N)cc1C(=O)N(C)CCN1CCOCC1 (centres unmarked) | < 1 nM |
| CC(=O)N[C@@H]1CCN(C(=O)c2cc(C#N)ccc2C2C(C(C)=O)=C(C)N(c3cccc(C(F)(F)F)c3)C(=O)N2C)C1 (some centres unmarked) | < 1 nM |
| CC(=O)C1=C(C)N(c2cccc(C(F)(F)F)c2)C(=O)N(C)C1c1ccc(C#N)cc1C(=O)N1CCN(C(C)=O)CC1 (centres unmarked) | 1.3 nM |
